Tested on: iHeps in iMPCCs

SMILES: Cn1cc[nH]c1=S [Methimazole]
- Model predictions iMPCC (binary decision): −

Reference: patent US10266806B2, “Stem cell-derived hepatocytes in co-culture and uses thereof” (Colorado State University Research Foundation, priority 2014, dated 2019)
